Columns and labels:
[1] = Inhibition of IRK (unknown origin); design: species or system Homo sapiens
[2] = target: T1, Serine/threonine-protein kinase D2 (Homo sapiens, UniProt Q9BZL6); assay: Inhibition of PKD2 (unknown origin)
T1 sequence (Q9BZL6 whole entry): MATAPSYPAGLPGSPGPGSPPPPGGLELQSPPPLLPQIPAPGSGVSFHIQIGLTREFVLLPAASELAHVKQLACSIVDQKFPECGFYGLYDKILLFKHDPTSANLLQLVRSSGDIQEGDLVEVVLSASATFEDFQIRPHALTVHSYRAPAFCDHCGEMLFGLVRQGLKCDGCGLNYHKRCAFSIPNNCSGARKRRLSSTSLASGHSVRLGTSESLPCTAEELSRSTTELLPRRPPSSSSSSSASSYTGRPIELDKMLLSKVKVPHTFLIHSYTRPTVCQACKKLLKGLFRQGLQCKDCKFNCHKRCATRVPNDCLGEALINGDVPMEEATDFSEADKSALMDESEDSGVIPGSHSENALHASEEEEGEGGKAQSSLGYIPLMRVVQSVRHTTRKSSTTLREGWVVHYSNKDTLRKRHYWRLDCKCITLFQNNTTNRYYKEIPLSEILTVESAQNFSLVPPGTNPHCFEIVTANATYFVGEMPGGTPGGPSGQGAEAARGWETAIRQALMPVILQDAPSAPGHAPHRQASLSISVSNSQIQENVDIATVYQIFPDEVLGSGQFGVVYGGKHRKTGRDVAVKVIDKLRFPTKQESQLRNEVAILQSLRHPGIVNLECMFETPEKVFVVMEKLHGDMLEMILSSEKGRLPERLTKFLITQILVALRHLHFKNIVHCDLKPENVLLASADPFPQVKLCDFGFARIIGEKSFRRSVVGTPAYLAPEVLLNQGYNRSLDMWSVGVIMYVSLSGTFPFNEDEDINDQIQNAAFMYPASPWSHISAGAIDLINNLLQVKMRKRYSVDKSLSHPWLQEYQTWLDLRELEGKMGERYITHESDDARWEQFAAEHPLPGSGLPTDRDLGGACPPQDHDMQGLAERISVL

Protein sequences, listed by entry. Tags and fused reporters are not part of them. Lines headed by an entry give the natural chain unless they say otherwise; changes in a name come on top.
UniProt P05771, whole entry: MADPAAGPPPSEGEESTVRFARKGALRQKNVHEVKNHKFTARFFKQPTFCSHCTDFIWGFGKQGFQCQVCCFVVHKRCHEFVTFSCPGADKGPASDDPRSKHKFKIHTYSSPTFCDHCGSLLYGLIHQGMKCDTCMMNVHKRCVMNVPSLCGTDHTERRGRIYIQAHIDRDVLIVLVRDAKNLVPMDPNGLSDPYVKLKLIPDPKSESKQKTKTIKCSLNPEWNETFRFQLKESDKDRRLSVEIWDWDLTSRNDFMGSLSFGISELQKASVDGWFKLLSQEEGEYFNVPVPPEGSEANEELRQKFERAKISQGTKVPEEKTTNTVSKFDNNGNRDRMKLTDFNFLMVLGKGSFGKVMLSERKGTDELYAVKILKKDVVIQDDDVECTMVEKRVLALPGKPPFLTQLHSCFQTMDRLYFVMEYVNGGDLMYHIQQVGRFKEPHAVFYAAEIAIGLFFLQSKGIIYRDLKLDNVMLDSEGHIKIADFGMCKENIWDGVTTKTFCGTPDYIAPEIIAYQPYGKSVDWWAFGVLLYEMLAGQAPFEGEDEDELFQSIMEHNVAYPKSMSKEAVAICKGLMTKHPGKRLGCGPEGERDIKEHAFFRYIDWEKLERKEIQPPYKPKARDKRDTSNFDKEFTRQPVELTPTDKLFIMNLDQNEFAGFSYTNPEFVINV
UniProt Q8N4C8: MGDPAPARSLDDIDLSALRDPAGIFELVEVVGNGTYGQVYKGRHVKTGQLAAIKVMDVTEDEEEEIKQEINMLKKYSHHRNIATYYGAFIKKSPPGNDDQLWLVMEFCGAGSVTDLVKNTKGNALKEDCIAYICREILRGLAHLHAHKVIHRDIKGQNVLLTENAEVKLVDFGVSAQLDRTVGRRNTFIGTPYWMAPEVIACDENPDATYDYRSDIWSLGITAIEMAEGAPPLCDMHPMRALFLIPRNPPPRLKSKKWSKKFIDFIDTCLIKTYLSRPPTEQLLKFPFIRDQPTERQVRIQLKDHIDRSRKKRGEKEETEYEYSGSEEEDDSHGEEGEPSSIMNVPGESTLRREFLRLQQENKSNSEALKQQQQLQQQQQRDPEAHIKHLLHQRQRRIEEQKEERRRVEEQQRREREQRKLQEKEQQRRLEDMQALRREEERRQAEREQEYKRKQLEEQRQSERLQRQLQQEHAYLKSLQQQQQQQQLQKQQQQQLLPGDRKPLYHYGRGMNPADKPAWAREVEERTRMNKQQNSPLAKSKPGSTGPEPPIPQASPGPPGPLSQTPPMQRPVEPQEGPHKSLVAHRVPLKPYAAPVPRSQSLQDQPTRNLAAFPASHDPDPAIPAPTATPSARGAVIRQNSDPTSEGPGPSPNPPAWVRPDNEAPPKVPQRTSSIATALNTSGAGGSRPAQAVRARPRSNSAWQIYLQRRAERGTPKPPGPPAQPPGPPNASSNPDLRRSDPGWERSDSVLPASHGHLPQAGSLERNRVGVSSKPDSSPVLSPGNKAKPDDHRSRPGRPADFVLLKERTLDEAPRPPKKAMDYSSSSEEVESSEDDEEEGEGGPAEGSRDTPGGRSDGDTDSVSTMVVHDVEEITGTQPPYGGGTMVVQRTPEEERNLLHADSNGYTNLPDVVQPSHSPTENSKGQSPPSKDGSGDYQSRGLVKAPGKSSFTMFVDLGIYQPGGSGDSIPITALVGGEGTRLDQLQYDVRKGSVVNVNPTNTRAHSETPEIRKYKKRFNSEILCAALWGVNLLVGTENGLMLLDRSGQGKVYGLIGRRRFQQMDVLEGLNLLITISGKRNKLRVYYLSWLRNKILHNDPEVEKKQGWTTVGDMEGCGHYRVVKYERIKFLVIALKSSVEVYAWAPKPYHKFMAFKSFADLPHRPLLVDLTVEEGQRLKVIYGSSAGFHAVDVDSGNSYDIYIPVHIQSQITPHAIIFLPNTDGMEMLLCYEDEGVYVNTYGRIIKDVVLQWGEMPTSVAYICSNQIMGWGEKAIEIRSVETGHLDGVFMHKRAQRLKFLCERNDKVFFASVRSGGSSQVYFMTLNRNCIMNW
UniProt O14920: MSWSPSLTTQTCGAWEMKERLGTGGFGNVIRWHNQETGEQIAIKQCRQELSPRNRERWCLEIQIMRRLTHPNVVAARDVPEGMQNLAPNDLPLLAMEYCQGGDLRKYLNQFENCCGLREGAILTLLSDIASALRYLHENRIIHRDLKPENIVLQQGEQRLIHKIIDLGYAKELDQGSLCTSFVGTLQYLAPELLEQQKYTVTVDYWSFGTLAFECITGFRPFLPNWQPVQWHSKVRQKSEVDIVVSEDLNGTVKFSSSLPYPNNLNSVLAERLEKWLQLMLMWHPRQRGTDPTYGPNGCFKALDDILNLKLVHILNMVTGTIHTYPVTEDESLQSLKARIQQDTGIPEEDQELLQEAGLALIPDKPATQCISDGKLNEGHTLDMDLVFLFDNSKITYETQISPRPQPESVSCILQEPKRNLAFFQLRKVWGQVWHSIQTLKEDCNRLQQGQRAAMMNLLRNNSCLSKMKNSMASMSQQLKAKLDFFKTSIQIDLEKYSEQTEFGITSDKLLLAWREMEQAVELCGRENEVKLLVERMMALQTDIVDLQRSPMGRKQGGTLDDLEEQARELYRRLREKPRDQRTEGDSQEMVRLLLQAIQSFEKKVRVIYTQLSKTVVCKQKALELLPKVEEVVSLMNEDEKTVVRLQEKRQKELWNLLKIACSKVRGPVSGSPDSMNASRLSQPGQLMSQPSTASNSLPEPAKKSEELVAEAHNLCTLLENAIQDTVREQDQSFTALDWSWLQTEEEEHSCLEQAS
UniProt Q9Y3S1: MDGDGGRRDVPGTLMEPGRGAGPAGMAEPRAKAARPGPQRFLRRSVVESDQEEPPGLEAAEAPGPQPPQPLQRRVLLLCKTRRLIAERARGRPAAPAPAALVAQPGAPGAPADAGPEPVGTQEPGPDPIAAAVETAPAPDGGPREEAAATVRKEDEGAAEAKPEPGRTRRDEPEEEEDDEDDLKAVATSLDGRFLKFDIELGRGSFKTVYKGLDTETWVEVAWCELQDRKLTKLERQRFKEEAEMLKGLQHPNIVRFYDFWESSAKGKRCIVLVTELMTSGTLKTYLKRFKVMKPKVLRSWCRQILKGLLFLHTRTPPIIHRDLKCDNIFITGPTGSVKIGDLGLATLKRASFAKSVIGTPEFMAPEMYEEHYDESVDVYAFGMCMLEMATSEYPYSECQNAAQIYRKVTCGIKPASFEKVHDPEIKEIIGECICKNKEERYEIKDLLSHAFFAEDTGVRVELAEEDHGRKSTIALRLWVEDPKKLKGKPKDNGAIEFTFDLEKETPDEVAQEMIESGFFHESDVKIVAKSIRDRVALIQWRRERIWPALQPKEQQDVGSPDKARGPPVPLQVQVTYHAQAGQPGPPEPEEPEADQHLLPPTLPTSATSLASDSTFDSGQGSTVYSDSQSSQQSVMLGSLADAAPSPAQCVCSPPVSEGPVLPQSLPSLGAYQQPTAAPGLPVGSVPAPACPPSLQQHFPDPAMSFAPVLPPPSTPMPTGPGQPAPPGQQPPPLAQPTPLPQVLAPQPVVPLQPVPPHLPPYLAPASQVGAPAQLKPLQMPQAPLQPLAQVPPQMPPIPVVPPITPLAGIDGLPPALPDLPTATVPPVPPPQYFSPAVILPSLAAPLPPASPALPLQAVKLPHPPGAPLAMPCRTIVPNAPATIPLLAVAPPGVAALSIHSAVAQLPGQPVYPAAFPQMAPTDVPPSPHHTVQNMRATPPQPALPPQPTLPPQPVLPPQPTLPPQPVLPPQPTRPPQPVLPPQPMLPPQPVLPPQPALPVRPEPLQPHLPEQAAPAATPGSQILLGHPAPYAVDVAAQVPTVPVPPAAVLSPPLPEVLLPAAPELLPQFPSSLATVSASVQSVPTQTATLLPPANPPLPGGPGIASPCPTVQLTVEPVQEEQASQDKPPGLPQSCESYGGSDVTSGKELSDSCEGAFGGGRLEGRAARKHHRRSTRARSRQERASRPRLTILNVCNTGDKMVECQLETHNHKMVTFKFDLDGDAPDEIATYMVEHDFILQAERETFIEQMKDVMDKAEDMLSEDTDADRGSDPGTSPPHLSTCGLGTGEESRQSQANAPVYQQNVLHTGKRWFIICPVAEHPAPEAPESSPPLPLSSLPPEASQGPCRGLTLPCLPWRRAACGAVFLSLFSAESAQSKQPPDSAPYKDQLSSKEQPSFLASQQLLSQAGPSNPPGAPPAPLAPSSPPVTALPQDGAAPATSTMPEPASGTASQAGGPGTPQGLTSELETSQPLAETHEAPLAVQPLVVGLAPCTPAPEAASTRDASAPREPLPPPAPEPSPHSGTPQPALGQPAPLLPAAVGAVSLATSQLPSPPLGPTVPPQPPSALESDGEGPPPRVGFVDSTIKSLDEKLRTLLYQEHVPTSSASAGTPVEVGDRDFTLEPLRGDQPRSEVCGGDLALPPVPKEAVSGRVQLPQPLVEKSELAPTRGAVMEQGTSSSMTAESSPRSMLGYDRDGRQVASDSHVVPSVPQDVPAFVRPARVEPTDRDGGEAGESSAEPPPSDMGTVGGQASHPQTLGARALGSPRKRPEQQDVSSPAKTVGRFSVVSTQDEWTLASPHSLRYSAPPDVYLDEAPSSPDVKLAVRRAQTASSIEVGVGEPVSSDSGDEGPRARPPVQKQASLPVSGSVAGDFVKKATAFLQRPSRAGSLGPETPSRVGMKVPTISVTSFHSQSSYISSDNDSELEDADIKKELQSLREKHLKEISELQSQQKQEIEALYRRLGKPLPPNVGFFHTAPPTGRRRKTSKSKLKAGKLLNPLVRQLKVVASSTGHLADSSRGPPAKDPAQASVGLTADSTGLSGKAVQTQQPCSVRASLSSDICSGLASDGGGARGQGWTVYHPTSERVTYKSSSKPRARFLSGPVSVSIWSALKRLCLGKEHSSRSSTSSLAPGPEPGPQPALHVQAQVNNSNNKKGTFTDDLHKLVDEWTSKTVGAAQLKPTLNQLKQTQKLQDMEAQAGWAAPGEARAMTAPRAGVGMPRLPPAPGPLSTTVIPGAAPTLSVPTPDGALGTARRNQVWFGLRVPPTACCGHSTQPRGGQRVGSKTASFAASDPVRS
UniProt Q86Y07: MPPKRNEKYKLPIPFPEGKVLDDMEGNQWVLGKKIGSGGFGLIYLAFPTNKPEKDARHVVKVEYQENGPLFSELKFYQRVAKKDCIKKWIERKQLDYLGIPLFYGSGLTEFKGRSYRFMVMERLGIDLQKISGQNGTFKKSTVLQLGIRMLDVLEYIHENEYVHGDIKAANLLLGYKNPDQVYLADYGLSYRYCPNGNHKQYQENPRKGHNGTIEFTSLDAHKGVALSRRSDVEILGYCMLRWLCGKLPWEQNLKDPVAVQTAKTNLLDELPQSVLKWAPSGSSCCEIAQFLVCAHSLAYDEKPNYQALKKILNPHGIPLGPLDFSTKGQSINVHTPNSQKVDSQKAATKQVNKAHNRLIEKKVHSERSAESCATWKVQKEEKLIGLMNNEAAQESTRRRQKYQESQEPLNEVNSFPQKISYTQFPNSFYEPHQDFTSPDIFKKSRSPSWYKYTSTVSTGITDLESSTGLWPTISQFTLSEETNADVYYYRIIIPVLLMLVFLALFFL
UniProt Q14289, whole entry: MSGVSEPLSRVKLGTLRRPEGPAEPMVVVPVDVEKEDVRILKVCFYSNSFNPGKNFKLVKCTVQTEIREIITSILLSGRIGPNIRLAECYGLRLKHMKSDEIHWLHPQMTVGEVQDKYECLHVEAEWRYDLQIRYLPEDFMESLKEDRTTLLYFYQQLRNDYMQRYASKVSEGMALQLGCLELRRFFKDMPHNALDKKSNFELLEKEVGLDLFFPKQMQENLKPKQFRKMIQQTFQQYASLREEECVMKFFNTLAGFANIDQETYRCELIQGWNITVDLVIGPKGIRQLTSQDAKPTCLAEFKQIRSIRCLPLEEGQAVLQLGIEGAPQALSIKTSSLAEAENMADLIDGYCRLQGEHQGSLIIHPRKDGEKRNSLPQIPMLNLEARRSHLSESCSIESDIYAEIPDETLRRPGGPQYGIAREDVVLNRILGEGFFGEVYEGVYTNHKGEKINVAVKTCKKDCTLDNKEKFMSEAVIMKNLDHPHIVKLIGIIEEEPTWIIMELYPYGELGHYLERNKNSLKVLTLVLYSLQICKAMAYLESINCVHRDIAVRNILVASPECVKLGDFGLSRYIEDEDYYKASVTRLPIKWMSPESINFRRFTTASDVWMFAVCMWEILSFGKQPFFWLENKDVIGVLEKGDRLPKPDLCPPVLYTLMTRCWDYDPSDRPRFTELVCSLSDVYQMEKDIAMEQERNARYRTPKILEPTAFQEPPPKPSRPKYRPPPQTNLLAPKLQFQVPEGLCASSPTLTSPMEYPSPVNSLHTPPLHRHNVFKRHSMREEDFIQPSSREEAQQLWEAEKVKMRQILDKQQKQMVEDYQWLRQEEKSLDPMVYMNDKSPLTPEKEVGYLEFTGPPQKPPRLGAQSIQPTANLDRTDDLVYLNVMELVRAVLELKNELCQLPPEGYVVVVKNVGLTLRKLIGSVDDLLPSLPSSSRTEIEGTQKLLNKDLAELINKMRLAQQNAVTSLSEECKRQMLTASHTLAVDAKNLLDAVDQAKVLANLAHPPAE

[3] = target: Protein kinase C eta type (Homo sapiens, UniProt P24723); assay: Inhibition of PKCeta (unknown origin)
[4] = target: T2, Protein kinase C beta type (Homo sapiens, UniProt P05771); assay: Inhibition of PKCbeta2 (unknown origin)
[5] = target: T2, Protein kinase C beta type; assay: Inhibition of PKCbeta1 (unknown origin)
[6] = Inhibition of PKA (unknown origin); design: species or system Homo sapiens
[7] = target: Misshapen-like kinase 1 (Homo sapiens, UniProt Q8N4C8); assay: Inhibition of MINK (unknown origin)
[8] = target: T3, Serine/threonine-protein kinase STK11 (Homo sapiens, UniProt Q15831); assay: Inhibition of LKB1 (unknown origin)
T3 sequence (Q15831 whole entry): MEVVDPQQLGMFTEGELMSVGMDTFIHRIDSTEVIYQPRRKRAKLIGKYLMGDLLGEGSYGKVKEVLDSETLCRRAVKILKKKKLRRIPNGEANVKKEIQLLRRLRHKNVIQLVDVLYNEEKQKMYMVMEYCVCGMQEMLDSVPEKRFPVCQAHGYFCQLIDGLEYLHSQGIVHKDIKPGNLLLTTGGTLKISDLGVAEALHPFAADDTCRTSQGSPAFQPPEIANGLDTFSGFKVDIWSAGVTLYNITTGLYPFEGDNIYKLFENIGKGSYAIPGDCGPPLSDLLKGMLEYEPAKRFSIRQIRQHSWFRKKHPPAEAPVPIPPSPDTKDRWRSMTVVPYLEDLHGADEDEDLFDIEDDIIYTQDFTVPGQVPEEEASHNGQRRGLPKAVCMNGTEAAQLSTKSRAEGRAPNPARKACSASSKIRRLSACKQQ

[9] = target: LIM domain kinase 1 (Homo sapiens, UniProt P53667); assay: Inhibition of LIMK1 (unknown origin)
[10] = target: Inhibitor of nuclear factor kappa-B kinase subunit beta (Homo sapiens, UniProt O14920); assay: Inhibition of IKKbeta (unknown origin)
[11] = target: T4, Ephrin type-B receptor 1 (Homo sapiens, UniProt P54762); assay: Inhibition of EPHB1 (unknown origin)
T4 sequence (P54762 whole entry): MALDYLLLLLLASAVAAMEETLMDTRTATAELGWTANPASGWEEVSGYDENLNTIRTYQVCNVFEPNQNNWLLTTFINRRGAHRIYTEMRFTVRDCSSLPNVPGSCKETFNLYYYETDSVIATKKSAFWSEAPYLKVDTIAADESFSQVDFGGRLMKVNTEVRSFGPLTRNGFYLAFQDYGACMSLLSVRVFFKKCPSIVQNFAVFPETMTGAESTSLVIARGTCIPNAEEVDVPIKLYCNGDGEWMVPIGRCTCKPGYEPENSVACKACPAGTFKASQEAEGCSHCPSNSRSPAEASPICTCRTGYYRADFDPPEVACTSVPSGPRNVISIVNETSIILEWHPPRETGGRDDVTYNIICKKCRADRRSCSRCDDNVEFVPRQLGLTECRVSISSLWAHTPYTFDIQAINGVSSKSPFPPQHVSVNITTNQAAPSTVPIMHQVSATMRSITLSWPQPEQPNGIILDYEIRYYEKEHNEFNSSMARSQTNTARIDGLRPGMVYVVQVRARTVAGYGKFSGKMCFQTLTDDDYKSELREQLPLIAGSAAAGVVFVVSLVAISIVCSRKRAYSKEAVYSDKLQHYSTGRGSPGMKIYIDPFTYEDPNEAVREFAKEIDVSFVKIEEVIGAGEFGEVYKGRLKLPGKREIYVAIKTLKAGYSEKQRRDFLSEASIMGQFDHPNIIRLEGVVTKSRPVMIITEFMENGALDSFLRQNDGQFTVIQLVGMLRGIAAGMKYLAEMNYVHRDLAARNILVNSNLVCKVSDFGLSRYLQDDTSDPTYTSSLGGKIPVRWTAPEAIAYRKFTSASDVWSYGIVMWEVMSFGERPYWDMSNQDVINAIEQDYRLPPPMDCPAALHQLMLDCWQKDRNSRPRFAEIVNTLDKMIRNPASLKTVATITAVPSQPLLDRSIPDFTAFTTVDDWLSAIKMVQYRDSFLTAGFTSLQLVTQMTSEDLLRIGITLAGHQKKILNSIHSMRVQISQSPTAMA

[12] = target: T5, Dual specificity tyrosine-phosphorylation-regulated kinase 2 (Homo sapiens, UniProt Q92630); assay: Inhibition of DYRK2 (unknown origin)
T5 sequence (Q92630 whole entry): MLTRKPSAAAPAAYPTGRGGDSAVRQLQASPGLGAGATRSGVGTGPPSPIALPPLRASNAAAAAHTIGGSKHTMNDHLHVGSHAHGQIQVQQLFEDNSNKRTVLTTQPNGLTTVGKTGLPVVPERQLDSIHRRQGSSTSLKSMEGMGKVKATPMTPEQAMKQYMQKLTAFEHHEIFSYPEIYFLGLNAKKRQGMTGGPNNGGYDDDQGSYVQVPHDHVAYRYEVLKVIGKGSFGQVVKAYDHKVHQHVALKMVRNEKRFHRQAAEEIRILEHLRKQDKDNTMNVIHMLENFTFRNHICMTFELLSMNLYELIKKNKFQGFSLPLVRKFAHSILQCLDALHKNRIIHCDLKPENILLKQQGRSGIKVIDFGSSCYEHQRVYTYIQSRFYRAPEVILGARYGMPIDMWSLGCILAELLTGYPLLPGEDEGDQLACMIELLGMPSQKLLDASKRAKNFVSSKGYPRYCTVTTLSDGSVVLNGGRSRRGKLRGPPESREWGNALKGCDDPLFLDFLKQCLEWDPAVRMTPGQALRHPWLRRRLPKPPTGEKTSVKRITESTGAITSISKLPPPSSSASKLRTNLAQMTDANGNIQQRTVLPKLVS

[13] = target: Calcium/calmodulin-dependent protein kinase type 1 (Homo sapiens, UniProt Q14012); assay: Inhibition of CAMK1 (unknown origin)
[14] = target: T6, Tyrosine-protein kinase receptor UFO (Homo sapiens, UniProt P30530); assay: Inhibition of AXL (unknown origin)
T6 sequence (P30530 whole entry): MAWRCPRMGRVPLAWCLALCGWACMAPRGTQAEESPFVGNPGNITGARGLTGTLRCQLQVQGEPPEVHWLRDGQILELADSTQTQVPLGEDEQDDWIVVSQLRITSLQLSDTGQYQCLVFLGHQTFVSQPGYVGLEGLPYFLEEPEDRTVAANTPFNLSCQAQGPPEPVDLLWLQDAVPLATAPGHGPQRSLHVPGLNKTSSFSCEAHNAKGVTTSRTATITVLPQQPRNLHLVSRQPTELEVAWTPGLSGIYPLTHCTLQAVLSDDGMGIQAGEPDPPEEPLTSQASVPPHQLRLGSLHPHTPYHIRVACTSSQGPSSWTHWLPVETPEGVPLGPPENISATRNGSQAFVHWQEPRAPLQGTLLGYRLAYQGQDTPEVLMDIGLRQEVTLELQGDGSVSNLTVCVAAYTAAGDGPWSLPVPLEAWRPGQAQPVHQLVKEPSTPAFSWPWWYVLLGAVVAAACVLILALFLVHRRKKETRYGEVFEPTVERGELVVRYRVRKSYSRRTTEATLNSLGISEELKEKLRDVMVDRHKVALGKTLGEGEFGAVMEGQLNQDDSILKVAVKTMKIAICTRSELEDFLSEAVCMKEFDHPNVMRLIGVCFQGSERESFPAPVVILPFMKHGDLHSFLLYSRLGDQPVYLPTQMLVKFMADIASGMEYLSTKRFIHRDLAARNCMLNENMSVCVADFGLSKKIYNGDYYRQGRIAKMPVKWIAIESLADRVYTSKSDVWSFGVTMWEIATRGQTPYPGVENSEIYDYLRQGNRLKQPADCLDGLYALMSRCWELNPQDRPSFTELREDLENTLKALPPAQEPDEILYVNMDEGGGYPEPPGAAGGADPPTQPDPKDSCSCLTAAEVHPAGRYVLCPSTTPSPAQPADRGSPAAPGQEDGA

[15] = target: T7, Mitogen-activated protein kinase kinase kinase 5 (Homo sapiens, UniProt Q99683); assay: Inhibition of ASK1 (unknown origin)
T7 sequence (Q99683 whole entry): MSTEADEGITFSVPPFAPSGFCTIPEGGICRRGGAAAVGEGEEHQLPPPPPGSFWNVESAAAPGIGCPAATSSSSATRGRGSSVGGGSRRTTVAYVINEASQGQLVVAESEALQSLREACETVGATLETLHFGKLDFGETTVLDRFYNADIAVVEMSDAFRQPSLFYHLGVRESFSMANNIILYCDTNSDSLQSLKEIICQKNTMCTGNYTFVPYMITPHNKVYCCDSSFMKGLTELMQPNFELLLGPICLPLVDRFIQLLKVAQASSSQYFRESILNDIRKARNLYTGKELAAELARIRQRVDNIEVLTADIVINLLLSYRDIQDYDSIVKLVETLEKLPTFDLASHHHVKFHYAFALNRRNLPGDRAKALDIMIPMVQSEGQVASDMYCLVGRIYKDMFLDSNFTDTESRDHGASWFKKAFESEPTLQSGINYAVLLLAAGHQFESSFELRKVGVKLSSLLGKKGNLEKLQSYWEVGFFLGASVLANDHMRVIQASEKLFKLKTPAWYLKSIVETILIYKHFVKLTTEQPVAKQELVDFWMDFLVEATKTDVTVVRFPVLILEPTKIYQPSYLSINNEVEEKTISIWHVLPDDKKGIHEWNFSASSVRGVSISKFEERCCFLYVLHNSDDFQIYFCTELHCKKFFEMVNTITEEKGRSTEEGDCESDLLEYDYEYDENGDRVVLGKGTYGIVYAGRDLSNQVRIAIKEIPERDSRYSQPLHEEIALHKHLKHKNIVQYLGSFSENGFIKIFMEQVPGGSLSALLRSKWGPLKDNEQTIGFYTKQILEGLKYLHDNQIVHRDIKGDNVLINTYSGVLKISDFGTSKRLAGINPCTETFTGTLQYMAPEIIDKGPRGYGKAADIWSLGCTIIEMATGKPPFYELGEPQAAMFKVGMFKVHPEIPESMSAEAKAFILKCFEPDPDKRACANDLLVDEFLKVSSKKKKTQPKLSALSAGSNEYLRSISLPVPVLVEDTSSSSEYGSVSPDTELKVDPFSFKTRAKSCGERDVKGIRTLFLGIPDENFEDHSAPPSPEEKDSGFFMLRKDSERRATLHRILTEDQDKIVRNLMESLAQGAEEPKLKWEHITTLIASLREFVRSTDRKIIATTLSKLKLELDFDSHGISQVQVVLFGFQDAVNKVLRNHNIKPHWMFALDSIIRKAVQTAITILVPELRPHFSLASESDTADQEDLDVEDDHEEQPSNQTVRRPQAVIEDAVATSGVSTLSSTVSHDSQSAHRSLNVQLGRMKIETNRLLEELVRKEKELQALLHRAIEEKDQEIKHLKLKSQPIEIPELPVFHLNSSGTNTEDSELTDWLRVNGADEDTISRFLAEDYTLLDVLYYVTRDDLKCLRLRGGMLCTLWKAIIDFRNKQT

[16] = target: Fibroblast growth factor receptor 4 (Homo sapiens, UniProt P22455); assay: Inhibition of FGFR4 (unknown origin)
[17] = target: Fibroblast growth factor receptor 2 (Homo sapiens, UniProt P21802); assay: Inhibition of FGFR2 (unknown origin)
[18] = Inhibition of EPH4 (unknown origin); design: species or system Homo sapiens
[19] = target: Serine/threonine-protein kinase WNK2 (Homo sapiens, UniProt Q9Y3S1); assay: Inhibition of WNK2 (unknown origin)
[20] = target: Serine/threonine-protein kinase VRK2 (Homo sapiens, UniProt Q86Y07); assay: Inhibition of VRK2 (unknown origin)
[21] = target: Rho-associated protein kinase 1 (Homo sapiens, UniProt Q13464); assay: Inhibition of ROCK1 (unknown origin)
[22] = target: Protein-tyrosine kinase 2-beta (Homo sapiens, UniProt Q14289); assay: Inhibition of PYK2 (unknown origin)
[23] = species: Homo sapiens; assay: Selectivity ratio of IC50 for PI3Kalpha (unknown origin) to IC50 for mTOR (unknown origin)

Cc1c(C(=O)N2CCOc3ccc(-c4ccc(N)nc4)cc3C2)ccc(S(C)(=O)=O)c1F
> 3.5 µM: IC50 [1]
> 10 µM: IC50 [2] | IC50 [3] | IC50 [4] | IC50 [5] | IC50 [6] | IC50 [7] | IC50 [8] | IC50 [9] | IC50 [10] | IC50 [11] | IC50 [12] | IC50 [13] | IC50 [14] | IC50 [15] | IC50 [16] | IC50 [17] | IC50 [18] | IC50 [19] | IC50 [20] | IC50 [21] | IC50 [22]

Cc1nc2ccc(-c3ccc4c(c3)CN(C(=O)c3ccc(C(=O)C(F)(F)F)cc3)CCO4)cc2[nH]1
> 100: Ratio IC50 [23]

From ChEMBL document CHEMBL2331117 (J Med Chem, 2013)
